Source: ChEMBL document CHEMBL3352272, “Discovery of 2-[5-(4-Fluorophenylcarbamoyl)pyridin-2-ylsulfanylmethyl]phenylboronic Acid (SX-517): Noncompetitive Boronic Acid Antagonist of CXCR1 and CXCR2” (J Med Chem, 2014)
pIC50: −log10 of the molar value.

The chains behind the UniProt entries cited, without tags or fusion partners.
UniProt P25025, whole entry: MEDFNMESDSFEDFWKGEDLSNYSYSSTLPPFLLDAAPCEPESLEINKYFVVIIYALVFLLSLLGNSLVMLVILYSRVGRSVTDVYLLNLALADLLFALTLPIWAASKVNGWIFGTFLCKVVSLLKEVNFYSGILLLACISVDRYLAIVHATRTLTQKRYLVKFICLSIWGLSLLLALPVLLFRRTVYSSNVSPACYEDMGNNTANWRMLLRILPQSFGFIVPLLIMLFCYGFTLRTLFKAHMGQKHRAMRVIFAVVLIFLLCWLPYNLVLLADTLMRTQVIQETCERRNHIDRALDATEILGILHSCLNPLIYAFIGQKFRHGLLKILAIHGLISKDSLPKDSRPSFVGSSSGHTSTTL

Experiments:
[1] = target: T1, C-X-C chemokine receptor type 2 (Homo sapiens, UniProt P25025); experiment: Antagonist activity at human CXCR2 expressed in HEK293 cells assessed as inhibition of CXCL8-induced intracellular Ca2+ release by fluorescence based calcium flux assay; assay type: functional, cell-based
Summary of the method: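 HEK293 cells stably transfected with human CXCR2 (pooled G418-selected line) loaded with FLIPR Calcium 3 dye in HBSS without Ca/Mg plus 10 mM HEPES, with compound or DMSO (1% final), 30 min at 37 °C. Cells resuspended in HBSS with Ca/Mg, compound re-added, 10^5 cells/well.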

[2] = target: T1, C-X-C chemokine receptor type 2; experiment: Antagonist activity at CXCR2 in human PMNs assessed as inhibition of CXCL1-induced intracellular Ca2+ release by fluorescence based calcium flux assay; assay type: functional, cell-based
Summary of the method: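 Human PMNs isolated from healthy donor blood (dextran sedimentation, Histopaque 1077, hypotonic RBC lysis). Cells loaded with FLIPR Calcium 3 dye in Ca/Mg-free HBSS with 10 mM HEPES plus compound, 30 min at 37 °C, then resuspended in HBSS with Ca/Mg and compound again. Stimulus was 25 nM CXCL1 (final). Fluorescence (ex 485, em 525 nm) read every 5 s at room temperature. Max–min signal normalised to DMSO control.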

pIC50 [1]: 7.40
pIC50 [2]: 7.52
SMILES: O=C(Nc1ccc([N+](=O)[O-])cc1O)Nc1ccccc1Br
